Rows were chosen to be rich in hits. Some 2.2% of all compounds tested hit in one or more screens of this group.
Nrf2 ARE act = Nrf2 pathway activation | AREc32 ARE-luciferase reporter (MCF7-derived line), luminescence, 24 h | Potency, µM (series often up to 46.1 µM), without a hit: at the top dose activation, hits mostly activators | 0.31% of 410,000 active; further: potency means the concentration at half of the fitted maximal effect; % of control where 0% means no effect; nearly all actives have a fitted effect of over 65% in size
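Cells of the AREc32 ARE-luciferase line are plated in OPTI-MEM containing 5% FBS and left overnight at 37 deg C. Compounds are pinned in, incubation continues 24 hr, and firefly luciferase signal is then measured.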
Nrf2 block = inhibitors of Nrf2 signaling; A549 ARE-Fluc reporter, luciferase luminescence, 18-24 h; Potency, µM (titrated, usually from 46 µM), without a hit: at the top dose activity change, negative = inhibition, usual class: inhibitors; 2.1% of 360,000 active; AID 504444; further: potency means the concentration at half of the fitted maximal effect; on the % scale 0 is the no-effect control and ±100 the full control effect; nearly all actives have a fitted effect of over 60% in size
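A549 ARE_Fluc cells, 5000/well, 5% FBS OPTI-MEM; compounds in dose-response, 18-24 h at 37 °C/5% CO2; CellTiter-Fluor viability read (Ex 405/Em 525), then BugLite luciferase luminescence = Nrf2 activity.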
A549 tox = counter-screen for Nrf2 inhibitors: cytotoxicity in A549 cells; A549 ARE-Fluc cells, CellTiter-Fluor viability, 18-24 h; Potency, µM (titrated, usually from 46 µM), for the others: at the top dose activity change, negative = cytotoxicity, usual class: inhibitors; 0.16% of 390,000 active; AID 504648; further: potency means the concentration at half of the fitted maximal effect; on the % scale 0 is the no-effect control and ±100 the full control effect
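Cytotoxicity counterscreen: CellTiter-Fluor fluorescence was measured in A549 ARE_Fluc cells after 18-24 h of compound exposure in a concentration series. The subsequent BugLite luminescent read reports ARE-luciferase activity.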
miR-21 reporter = miR-21 reporter, rising signal | AID 2288 | HeLa miR-21 FLuc reporter, luciferase, 48 h | 340,000 tested, under 10 active | Potency, µM (doses to about 38.3 µM), for inactives: at the top dose reporter change, positive = more light; active = well fitted rising curve with a large enough effect; inconclusive = small, poorly fitted or top-dose-only effect; inactive = no such curve, though single readings can be large or run the other way;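 note: % of control where 0% means no effect; miR-21 action dims this reporter so a rising signal means less miR-21 action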
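HeLa cells stably expressing CMV-driven firefly luciferase with a downstream miR-21 binding sequence, endogenously expressing miR-21, were treated with titrations (up to about 40uM final) for 48 hours at 37 degree Celsius. Luciferase luminescence was read after lysis.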
B2AR arrestin = agonists driving beta-arrestin recruitment to human beta2-adrenergic receptor; P07550; beta-arrestin recruitment to beta2AR, cell-based reporter; Potency, µM (highest dose often 46.1 µM), for the others: at the highest dose activation, most hits filed as activators; 0.02% of 330,000 active;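 further: potency means the concentration at half of the fitted maximal effect; 0% = DMSO controls and full agonism = EC100 isoproterenol or metaproterenol; nearly all actives have a fitted effect of over 65% in size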
An asterisk follows results filed as active; ? = inconclusive; nt = not tested or not shown; [ ] = remark or other dose. The call rests on the fitted dose curve; in most records, active means well fitted curve in the direction sought with a large enough effect; inconclusive means small, poorly fitted or top-dose-only effect, or another doubt; inactive means no such curve, though single readings can be large; an effect the other way counts as inactive or inconclusive.

| SMILES | Nrf2 ARE act | Nrf2 block | A549 tox | miR-21 reporter | B2AR arrestin |
| --- | --- | --- | --- | --- | --- |
| Fc1ccc(N/N=C2/CC(c3ccccc3)Oc3ccccc32)c(F)c1 (centres undefined) | 12.6µM* | -0.9% | 12.0% | -8.8% | 3.0% |
| CNC(=S)N/N=C1\CC(c2ccccc2)Oc2ccccc21 (centres undefined) | 6.0% | -28.2% | 0.2% | 8.6% | ? |
| O=S(=O)(NCCc1cn2ccccc2n1)c1ccc(-c2ccccc2)cc1 | 0.1% | 20.6µM* | -9.2% | 5.3% | 0.1% |
| CC1(C)O[C@@H]2C[C@H]3[C@@H]4C[C@H](F)C5=CC(=O)C=C[C@]5(C)[C@@]4(F)[C@@H](O)C[C@]3(C)[C@]2(C(=O)CO)O1 | -0.7% | ? | -9.9% | -36.1% | -0.2% |
| C[C@@H]1C[C@H]2[C@@H]3C[C@H](F)C4=CC(=O)C=C[C@]4(C)[C@@]3(Cl)[C@@H](O)C[C@]2(C)[C@H]1C(=O)COC(=O)C(C)(C)C | -1.1% | 0.0065µM* | -5.3% | nt | -0.1% |
| CN(C(=O)c1coc(=O)c2ccccc12)c1ccc(Br)cc1 | -0.1% | 4.9% | 3.9% | 4.4% | 0.5% |
| CN(C(=O)c1coc(=O)c2ccccc12)c1ccc(F)cc1 | -0.1% | 23.1µM* | -16.4% | 16.5% | -0.4% |
| CC(C)C[C@H](NC(=O)c1nc[nH]c1C(=O)N[C@@H](CC(C)C)C(=O)OC(C)(C)C)C(=O)OC(C)(C)C | 11.9% | 25.9µM* | ? | 5.5% | 0.7% |
| O=C(CCCSc1ccc(Cl)cc1)Nc1ccccc1O | 14.1µM* | 2.1% | 2.2% | 7.4% | 0.0% |
| O=C(CSCc1ccc(Cl)cc1)Nc1ccccc1O | ? | 5.4% | -0.3% | -6.1% | -0.1% |
| CC[C@@H](C(=O)[C@@H](C)[C@@H](O)[C@H](C)CCc1ccc(C)c(O)c1C(=O)O)[C@H]1O[C@](CC)([C@H]2CC[C@](O)(CC)[C@H](C)O2)C[C@@H]1C | -3.0% | 5.17µM* | 6.51µM* | 23.9% | -0.5% |
| O=C(NNC(=O)C12CC3CC(CC(C3)C1)C2)c1ccccn1 | ? | 20.6µM* | ? | 11.3% | -0.8% |
| O=C(NNC(=O)C12CC3CC(CC(C3)C1)C2)c1cnccn1 | -0.3% | -6.9% | -5.0% | -4.7% | -0.1% |
| Oc1cccc2ccc(/C=C/c3ccccc3Br)nc12 | 10µM* | 5.6% | 1.8% | 0.8% | 5.0% |
| COc1cc(Br)c(/C=C/c2ccc3cccc(O)c3n2)cc1OC | 12.7% | -22.0% | -3.0% | -9.2% | 4.7% |
| Oc1cccc2ccc(/C=C/c3cccs3)nc12 | 3.16µM* | nt | -0.1% | -34.0% | 6.0% |
| c1ccc(C[n+]2cccc(-c3ccccc3)c2)cc1 | 0.4% | 18.4µM* | 0.9% | 15.1% | -1.7% |
| c1ccc(C[n+]2ccc3ccccc3c2)cc1 | -0.7% | ? | -10.3% | nt | nt |
| Cc1cc(-c2csc3nc[nH]c(=S)c23)cc(C)c1C | 9.4% | 23.1µM* | ? | 6.6% | 0.1% |
| NC(=O)c1ccccc1N/C=C/C(=O)c1ccco1 | ? | ? | -4.8% | -56.8% | -0.6% |
| O=C(/C=C/Nc1ccccc1C(F)(F)F)c1ccco1 | 1.78µM* | ? | -1.4% | -50.4% | -2.0% |
| COc1ccc(-c2cnc(SCC(=O)Nc3nc(C(C)(C)C)cs3)n2Cc2ccco2)cc1 | 7.8% | 20.6µM* | -15.4% | 11.8% | 1.0% |
| COc1ccc(NC(=O)CSc2ncc(-c3ccc(F)cc3)n2Cc2ccco2)cc1 | 1.7% | 15.8µM* | -16.8% | 21.0% | 2.5% |
| COc1ccc(-c2cnc(SCC(=O)Nc3cc(C)on3)n2Cc2ccco2)cc1 | 0.3% | -12.7% | -7.0% | -6.9% | 0.7% |
| COc1ccc(CCNC(=O)Cc2c(C)c3ccc(O)c(C)c3oc2=O)cc1OC | 3.2% | -3.0% | -7.1% | 18.0% | nt |
| Cc1ccc(-c2nc3cc(C(C)C)ccc3o2)cc1NC(=O)c1cccs1 | 13.6% | ? | 0.9% | -23.3% | nt |
| CCOC(=O)c1ccc(NC(=O)CSc2nccn2-c2ccc(OCC)cc2)cc1 | 0.1% | 13.9% | 0.1% | 21.0% | nt |
| O=C(CCc1nc2ccccc2c(=O)[nH]1)N1CCN(c2ccc(F)cc2)CC1 | 1.4% | 16.4µM* | -0.2% | 0.1% | 0.0% |
| CC[C@@]1(O)C(=O)OCc2c1cc1n(c2=O)Cc2cc3c(CN(C)C)c(O)ccc3nc2-1 | -1.8% | 2.31µM* | ? | nt | nt |
| CCCCc1cc(=O)oc2c(CN(C)C)c(O)ccc12 | -0.6% | 1.5% | 24.4% | -0.5% | -0.3% |

One compound at a time, from the list above. Order of values: Nrf2 ARE act	Nrf2 block	A549 tox	miR-21 reporter	B2AR arrestin
Shown for `COc1ccc(CCNC(=O)Cc2c(C)c3ccc(O)c(C)c3oc2=O)cc1OC` → 3.2%	-3.0%	-7.1%	18.0%	nt
Shown for `CC1(C)O[C@@H]2C[C@H]3[C@@H]4C[C@H](F)C5=CC(=O)C=C[C@]5(C)[C@@]4(F)[C@@H](O)C[C@]3(C)[C@]2(C(=O)CO)O1` → -0.7%	?	-9.9%	-36.1%	-0.2%
Shown for `c1ccc(C[n+]2cccc(-c3ccccc3)c2)cc1` → 0.4%	18.4µM*	0.9%	15.1%	-1.7%
Shown for `O=C(CCCSc1ccc(Cl)cc1)Nc1ccccc1O` → 14.1µM*	2.1%	2.2%	7.4%	0.0%
Shown for `Fc1ccc(N/N=C2/CC(c3ccccc3)Oc3ccccc32)c(F)c1` (centres undefined) → 12.6µM*	-0.9%	12.0%	-8.8%	3.0%

Continued:
| SMILES | Nrf2 ARE act | Nrf2 block | A549 tox | miR-21 reporter | B2AR arrestin |
| --- | --- | --- | --- | --- | --- |
| O=C1CCc2cc(S(=O)(=O)Nc3cccc(C(F)(F)F)c3)ccc2N1 | nt | ? | -2.6% | nt | nt |
| COc1cccc(NC(=O)c2oc3ccccc3c2NC(=O)C(C)(C)C)c1 | -0.3% | 9.2µM* | -2.7%[1.84 µM] | 11.7% | -0.1% |
| COc1cccc(NC(=O)c2oc3ccccc3c2NC(=O)c2cc3ccccc3o2)c1 | 3.8% | 4.3% | 2.9% | -5.8% | nt |
| COc1ccc(NC(=S)N2C3CCC2CC(NC(=O)NC24CC5CC(CC(C5)C2)C4)C3)c(OC)c1 (centres undefined) | 2.6% | -2.1% | 3.5% | -3.4% | 0.0% |
| Cc1cc([N+](=O)[O-])ccc1NC(=O)CN1C2CCC1CC(NC(=O)NC13CC4CC(CC(C4)C1)C3)C2 (centres undefined) | 0.2% | 16.4µM* | -18.3% | 5.3% | -0.2% |
| Cc1[nH]c2ccccc2c1SCCNC(=O)c1ccc(Br)o1 | 4.3% | 23.1µM* | ? | 7.4% | -0.2% |
| CCOc1ncccc1-c1nc(-c2cccs2)no1 | 10µM* | ? | 14.3% | -34.6% | 0.1% |
| CCOc1nc(-c2ccccc2)ccc1-c1noc(-c2cccs2)n1 | ? | ? | ? | 0.3% | -0.6% |
| CC(Sc1nc(N)c2c3c(sc2n1)CSC(C)(C)C3)C(=O)Nc1ccccc1 (centres undefined) | 3.7% | 18.4µM* | ? | 9.8% | 7.2% |
| CC(Sc1nc(NCc2ccccc2)nc(N(C)C)n1)C(=O)Nc1ccccc1 (centres undefined) | 0.5% | nt | ? | 14.9% | 0.2% |
| Nc1cc2c3c(cccc3c1)C(=O)N(CCN1CCCC1)C2=O | 2.6% | 13µM* | ? | ? | -0.8% |
| CCN(CC)CCN1C(=O)c2cccc3cc(N)cc(c23)C1=O | -1.8% | ? | ? | ? | -1.1% |
| CC1CCN(c2oc(-c3ccc(COc4ccccc4)o3)nc2C#N)CC1 | -1.3% | -18.8% | -2.8% | -14.1% | nt |
| Cc1cc(Br)ccc1NC(=O)CN(C)C(=O)COc1cccc2c1OC(C)(C)C2 | -0.2% | 20.6µM* | -0.5% | nt | -0.3% |
| Cc1cccc(C)c1NC(=O)CN(C)C(=O)COc1cccc2c1OC(C)(C)C2 | 0.6% | 4.7% | 3.8% | nt | -0.5% |
| COc1ccc(NC(=O)COc2cccc3c2OC(C)(C)C3)cc1OC | 0.9% | 18.4µM* | -10.1% | nt | 0.0% |
| COc1ccc(-c2cc3nc(C)cc(C)n3n2)cc1 | 25.8% | ? | -5.2% | -62.9% | -0.5% |
| Cc1cc(C)n2nc(-c3ccc(Cl)cc3)cc2n1 | 14.1µM* | ? | 7.9% | -62.9% | -0.9% |
| Cc1cc(C)n2nc(-c3ccc(Br)cc3)cc2n1 | 2.24µM* | ? | 25.5% | -55.2% | -1.2% |

Screening results deposited in PubChem by National Center for Advancing Translational Sciences (NCATS).
